Laboratory results: ChEMBL document CHEMBL4354843, “Structure-Based Design of a Potent and Selective Covalent Inhibitor for SRC Kinase That Targets a P-Loop Cysteine” (J Med Chem, 2020)

Chains of the proteins cited; added tags and fusions are not shown.
UniProt P07947, whole entry, looked up: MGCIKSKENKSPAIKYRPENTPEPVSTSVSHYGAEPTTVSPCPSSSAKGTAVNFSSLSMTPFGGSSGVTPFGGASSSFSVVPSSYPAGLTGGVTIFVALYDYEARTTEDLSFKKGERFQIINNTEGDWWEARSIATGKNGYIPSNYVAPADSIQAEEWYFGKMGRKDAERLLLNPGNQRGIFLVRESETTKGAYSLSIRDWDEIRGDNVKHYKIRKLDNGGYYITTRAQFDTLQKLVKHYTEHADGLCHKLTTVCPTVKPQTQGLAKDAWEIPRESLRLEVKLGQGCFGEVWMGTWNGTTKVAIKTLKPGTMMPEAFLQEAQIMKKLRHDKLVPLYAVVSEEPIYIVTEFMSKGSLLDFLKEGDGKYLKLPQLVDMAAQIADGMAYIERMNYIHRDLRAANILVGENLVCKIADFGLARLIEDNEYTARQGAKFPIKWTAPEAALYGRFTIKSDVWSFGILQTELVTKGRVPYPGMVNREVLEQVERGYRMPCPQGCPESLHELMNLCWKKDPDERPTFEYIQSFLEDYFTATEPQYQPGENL

Biological target: Tyrosine-protein kinase Yes (Homo sapiens) (UniProt P07947)
Assay: Binding affinity to wild-type human partial length YES (T257 to L543 residues) expressed in bacterial expression system assessed as residual binding level at 1 uM by Kinomescan method relative to control

## C=CC(=O)Nc1ccccc1Nc1nc(Nc2ccc(N3CCN(C)CC3)cc2)ncc1C(=O)Nc1c(C)cccc1Cl
  Activity: 0.55%
